Source: the kinase profiling compilation of Christmann-Franck et al. (2016)

Chains of the proteins cited; added tags and fusions are not shown. Lines headed by an entry give the natural chain unless they say otherwise; changes in a name come on top.
UniProt Q9UIK4: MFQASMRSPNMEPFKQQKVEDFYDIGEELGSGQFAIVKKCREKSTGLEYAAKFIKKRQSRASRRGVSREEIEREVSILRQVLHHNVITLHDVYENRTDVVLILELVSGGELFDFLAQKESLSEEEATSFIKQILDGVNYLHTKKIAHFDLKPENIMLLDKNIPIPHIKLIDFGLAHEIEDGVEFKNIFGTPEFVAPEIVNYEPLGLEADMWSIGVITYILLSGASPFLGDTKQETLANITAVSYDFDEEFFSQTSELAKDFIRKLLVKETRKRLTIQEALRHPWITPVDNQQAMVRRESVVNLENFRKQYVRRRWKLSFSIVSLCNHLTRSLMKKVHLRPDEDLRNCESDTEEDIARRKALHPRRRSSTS
UniProt Q8IYT8: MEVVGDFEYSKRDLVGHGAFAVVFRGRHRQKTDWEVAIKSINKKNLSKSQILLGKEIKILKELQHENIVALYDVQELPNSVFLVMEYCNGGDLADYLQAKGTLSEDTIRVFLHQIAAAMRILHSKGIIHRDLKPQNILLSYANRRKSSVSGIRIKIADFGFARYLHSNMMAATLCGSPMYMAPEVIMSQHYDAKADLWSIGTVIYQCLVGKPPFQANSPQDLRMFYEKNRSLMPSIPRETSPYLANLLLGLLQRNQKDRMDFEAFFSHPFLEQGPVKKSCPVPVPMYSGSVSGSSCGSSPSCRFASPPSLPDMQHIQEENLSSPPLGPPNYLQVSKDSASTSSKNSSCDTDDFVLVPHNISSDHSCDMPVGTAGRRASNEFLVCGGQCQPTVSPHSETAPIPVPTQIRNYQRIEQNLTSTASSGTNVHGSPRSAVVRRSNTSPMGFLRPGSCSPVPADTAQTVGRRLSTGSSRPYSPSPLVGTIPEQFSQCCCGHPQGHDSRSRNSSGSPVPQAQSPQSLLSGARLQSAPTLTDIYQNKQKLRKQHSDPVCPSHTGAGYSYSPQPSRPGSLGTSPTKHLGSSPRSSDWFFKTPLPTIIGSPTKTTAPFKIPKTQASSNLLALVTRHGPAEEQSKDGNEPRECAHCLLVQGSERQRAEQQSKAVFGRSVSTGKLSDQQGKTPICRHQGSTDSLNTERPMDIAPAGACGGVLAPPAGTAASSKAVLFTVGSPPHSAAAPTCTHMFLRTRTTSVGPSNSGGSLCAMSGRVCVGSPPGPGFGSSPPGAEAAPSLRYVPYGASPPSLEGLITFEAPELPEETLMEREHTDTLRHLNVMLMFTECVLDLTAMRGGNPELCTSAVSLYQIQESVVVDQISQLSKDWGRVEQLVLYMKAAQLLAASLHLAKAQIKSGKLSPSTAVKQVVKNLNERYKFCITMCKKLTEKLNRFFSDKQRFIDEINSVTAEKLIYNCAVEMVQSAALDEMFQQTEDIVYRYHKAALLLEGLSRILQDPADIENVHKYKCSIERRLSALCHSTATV

What was measured:
DAPK2 (human) = DAPK2 (human) (UniProt Q9UIK4); assay: radiometric filter-binding kinase assay, Kinase HotSpot; conditions: compound 0.5 µM; ATP 10 µM
ULK2 (human) = ULK2 (human) (UniProt Q8IYT8); assay: as above; conditions: compound 0.5 µM; ATP 10 µM

Compound `Cn1cc(/C=C2\C(=O)Nc3ccc(S(N)(=O)=O)cc32)c2ccccc21` has a residual activity (DAPK2 (human)) of 94%.

For `O=c1[nH]c2ccccc2n1C1CCN(Cc2ccc(-c3nc4cc5[nH]cnc5cc4nc3-c3ccccc3)cc2)CC1`, the residual activity (ULK2 (human)) was 106%.
